The data set deals with H460 cells. Kind of data set: Cytotoxicity of Pten and Pten-NCP. To be noted: Pt concentration of up to 50 μM.

This passage reports cytotoxicity results from patent US20200085742A1, “NANOSCALE CARRIERS FOR THE DELIVERY OR CO-DELIVERY OF CHEMOTHERAPEUTICS, NUCLEIC ACIDS AND PHOTOSENSITIZERS” (The University of Chicago, priority 2013, published 2020).

For the substance “bis(ethylenediamine)platinum bisphosphonic acid [Pten]”, the cytotoxicity entry is “no cytotoxicity”.
